Reference: ChEMBL document CHEMBL1154389, “Discovery of pyrimidine benzimidazoles as Src-family selective Lck inhibitors. Part II” (Bioorg Med Chem Lett, 2009)

Chains of the proteins cited; added tags and fusions are not shown. Lines headed by an entry give the natural chain unless they say otherwise; changes in a name come on top.
UniProt P06239: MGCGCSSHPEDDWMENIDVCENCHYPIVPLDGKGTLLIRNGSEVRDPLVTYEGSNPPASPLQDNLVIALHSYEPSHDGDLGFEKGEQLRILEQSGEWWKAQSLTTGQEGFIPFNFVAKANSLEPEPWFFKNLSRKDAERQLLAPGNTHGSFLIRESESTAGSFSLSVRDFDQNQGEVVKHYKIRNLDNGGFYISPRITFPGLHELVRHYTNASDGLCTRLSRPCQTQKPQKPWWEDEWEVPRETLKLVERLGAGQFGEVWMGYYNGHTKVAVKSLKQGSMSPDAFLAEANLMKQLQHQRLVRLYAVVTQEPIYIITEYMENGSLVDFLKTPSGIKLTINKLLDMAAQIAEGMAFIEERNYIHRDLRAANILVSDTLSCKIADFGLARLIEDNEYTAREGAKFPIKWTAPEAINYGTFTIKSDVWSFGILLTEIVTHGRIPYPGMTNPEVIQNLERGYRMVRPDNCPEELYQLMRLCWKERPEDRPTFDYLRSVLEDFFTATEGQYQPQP

Biological target: Tyrosine-protein kinase Lck (Homo sapiens, UniProt P06239)
Test: Inhibition of LCK

SMILES: Cc1ccc(NC(=O)c2ccncc2C(C)(C)C)cc1Nc1nc2ccccc2n1-c1cc(N)ncn1
- IC50: 10 nM
